Results published in patent publication US9718790B2, “Triazine derivative and pharmaceutical composition having an analgesic activity comprising the same” (SHIONOGI & CO., LTD., priority 2010, dated 2017).

By UniProt entry, the sequences of proteins in these tests, tags left out. Where a name states a change or a piece, a line headed by the entry shows the natural chain unless it says otherwise.
UniProt P56373: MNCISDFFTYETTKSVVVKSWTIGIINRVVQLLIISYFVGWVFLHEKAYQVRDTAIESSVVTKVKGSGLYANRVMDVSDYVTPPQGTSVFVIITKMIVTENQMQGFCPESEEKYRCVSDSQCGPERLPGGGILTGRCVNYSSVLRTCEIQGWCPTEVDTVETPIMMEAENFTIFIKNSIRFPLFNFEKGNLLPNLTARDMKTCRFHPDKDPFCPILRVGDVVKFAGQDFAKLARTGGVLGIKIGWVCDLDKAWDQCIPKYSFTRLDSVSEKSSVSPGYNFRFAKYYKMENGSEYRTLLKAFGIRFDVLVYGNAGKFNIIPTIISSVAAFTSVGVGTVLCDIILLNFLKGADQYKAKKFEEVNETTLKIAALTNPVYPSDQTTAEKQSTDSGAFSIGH

Biological target: human P2X3 receptor (Homo sapiens (Human), UniProt P56373)
Assay: Evaluation of human P2X3 receptor inhibitory activity (Fluo-3 calcium fluorescence, FDSS 3000, ATP stimulation);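 also: stimulus was 50 nM ATP with fluorescence followed for 3 min, and the response per well was peak post-ATP fluorescence divided by the reading at measurement start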
Assay type: cell-based
Conditions: Test Example 1

CCn1c(=O)[nH]/c(=N\c2ccc(Oc3ccnc(C(=O)O)c3)cc2)n(CC2CCC(C)CC2)c1=O (stereo not shown) [Compound I-2422]
IC50: 7 nM
